How the values were obtained:
TYK2 [1] = target: T1, TYK2 (Homo sapiens, UniProt P29597); assay: TYK2 degradation MSD assay in EBV-B cells; type: cell-based; conditions: read-out: TYK2 MSD DC50 rating in EBV-B, 4 to 24 hours incubation
Protocol: (§1) Example 3. TYK2 Degradation MSD Assay in EBV-B, OCI-LY10, and Human PBMC Cells
(§2) Degradation of TYK2 in cells was quantitatively measured using Meso Scale Discovery (MSD) technology. EBV-B, OCI-LY10 or human PBMC cells were seeded in 96-well plates with a density of 0.4 million cells per well in 100 μl fresh media. Compounds were then added to the assay plates with a final top concentration of 1 to 10 μM in a 1:3 dilution series with total of 9 doses. The assay plates were then incubated for 4 to 24 hours at 37° C. under 5% CO2. The assay plates were then centrifuged for 5 minutes, and the cell pellets were treated with 100 μl/well RIPA lysis buffer (Boston Bioproducts, BP-115D) with protease and phosphatase inhibitors (Roche, 05892791001 and 04906837001). To prepare MSD assay plates (MSD, L15XA), the plates were coated with the capture antibody (Santa Cruz Biotechnology, SC-5271) in PBS, at 40 μl/well. The plates were then incubated overnight at 4° C., washed 3 times with 150 μl/well TBST buffer (Cell Signaling Technology, 9997S) and blocked with 150 μl/well blocking buffer (MSD, R93BA-4). Cell lysates were then added to MSD assay plates and the plates were incubated at room temperature for 1 hour. The plates were then washed 3 times with 150 μl/well TBST buffer and 25 μl/well primary detection antibody (Cell Signaling Technology, #9312). The assay plates were then incubated at room temperature for 1 hour, washed 3 times with 150 μl/well TBST buffer, and 25 μl/well secondary detection antibody, SULFO-TAG anti-rabbit antibody (MSD, R32AB-1) were added. The assay plates were then incubated at room temperature for 1 hour, washed 3 times with 150 μl/well TBST buffer, and 150 μl/well MSD reading buffer (MSD, R92TC-2) were added. The plates were then analyzed by an MSD reader. The data was analyzed by GraphPad Prism and the dose dependent TYK2 degradation was fit using the four-parameter inhibitor vs. response nonlinear regression. The DC50 data were measured and categorized into different levels in Table H. The compound with DC50 less than or equal to 1 nM is marked as A, with DC50 more than 1 nM and less than or equal to 10 nM is marked as B, with DC50 more than 10 nM and less than or equal to 100 nM is marked as C, and with DC50 more than 100 nM or not available is marked as D.

Sequences of proteins named here, by UniProt entry; tags and fusion partners are left off.
UniProt P29597, whole entry: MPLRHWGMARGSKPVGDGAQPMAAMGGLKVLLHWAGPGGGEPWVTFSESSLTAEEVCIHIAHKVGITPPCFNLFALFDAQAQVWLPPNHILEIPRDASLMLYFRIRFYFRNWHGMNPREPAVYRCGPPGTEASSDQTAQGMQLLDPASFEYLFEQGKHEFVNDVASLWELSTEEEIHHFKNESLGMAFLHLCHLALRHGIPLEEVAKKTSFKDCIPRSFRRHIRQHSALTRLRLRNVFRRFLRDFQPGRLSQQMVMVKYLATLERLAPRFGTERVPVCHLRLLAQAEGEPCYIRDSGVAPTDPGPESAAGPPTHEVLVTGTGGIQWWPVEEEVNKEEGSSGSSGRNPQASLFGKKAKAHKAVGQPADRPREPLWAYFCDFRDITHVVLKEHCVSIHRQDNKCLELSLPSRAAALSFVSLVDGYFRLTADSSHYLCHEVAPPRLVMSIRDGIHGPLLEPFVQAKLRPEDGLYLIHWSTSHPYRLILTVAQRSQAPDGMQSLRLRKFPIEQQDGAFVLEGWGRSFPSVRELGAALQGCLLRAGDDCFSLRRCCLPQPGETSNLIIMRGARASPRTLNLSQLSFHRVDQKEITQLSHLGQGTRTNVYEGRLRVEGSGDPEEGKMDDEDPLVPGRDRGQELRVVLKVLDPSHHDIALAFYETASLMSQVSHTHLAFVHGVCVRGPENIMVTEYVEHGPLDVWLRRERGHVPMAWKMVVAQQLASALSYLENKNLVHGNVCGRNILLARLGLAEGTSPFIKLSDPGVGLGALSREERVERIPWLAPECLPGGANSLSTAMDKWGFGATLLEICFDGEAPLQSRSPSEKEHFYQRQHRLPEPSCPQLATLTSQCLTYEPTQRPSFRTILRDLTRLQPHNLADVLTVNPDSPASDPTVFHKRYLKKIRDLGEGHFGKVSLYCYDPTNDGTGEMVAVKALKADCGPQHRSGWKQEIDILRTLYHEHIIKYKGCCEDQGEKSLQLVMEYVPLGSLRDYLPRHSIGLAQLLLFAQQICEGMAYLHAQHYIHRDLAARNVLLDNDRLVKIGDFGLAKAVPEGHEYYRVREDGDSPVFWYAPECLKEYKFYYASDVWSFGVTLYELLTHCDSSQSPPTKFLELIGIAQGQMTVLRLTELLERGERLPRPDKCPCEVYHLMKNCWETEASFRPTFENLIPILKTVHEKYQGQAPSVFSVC

TYK2 [2] = target: T1, TYK2; assay: TYK2 degradation MSD assay in OCI-LY10 cells; conditions: read-out: TYK2 MSD DC50 rating in OCI-LY10, 4 to 24 hours incubation
Protocol: as §1, §2

TYK2 [3] = target: T1, TYK2; assay: TYK2 degradation MSD assay in human PBMC cells; conditions: read-out: TYK2 MSD DC50 rating in human PBMC, 4 to 24 hours incubation
Protocol: as §1, §2

SMILES	DC50 (TYK2 [1])	DC50 (TYK2 [2])	DC50 (TYK2 [3])
CNc1cc(Nc2cccn(-c3ccc(CN4CCC(N5CC(N6CCN(c7ccc8c(c7)n(C)c(=O)n8C7CCC(=O)NC7=O)CC6)C5)CC4)cn3)c2=O)nn2c(C(=O)N[C@@H]3C[C@@H]3F)cnc12 (stereo partly drawn)	> 0.1 µM	< 0.001 µM	> 0.1 µM
CNC(=O)c1cnc(Nc2ccc(C(=O)N(C)C3CCN(c4cccc5c4n(C)c(=O)n5C4CCC(=O)NC4=O)CC3)cn2)cc1Nc1cccc(-c2ncc(F)cn2)c1OC (stereo not drawn)	< 0.001 µM	< 0.001 µM	< 0.001 µM
CNC(=O)c1cnc(Nc2cc(CN3CCN(c4ccc5c(c4)n(C)c(=O)n5C4CCC(=O)NC4=O)CC3)ccn2)cc1Nc1cccc(-c2ncc(F)cn2)c1OC (stereo not drawn)	< 0.001 µM	> 0.1 µM	< 0.001 µM
CNC(=O)c1cnc(Nc2ccc(C(=O)NCCOCCOCCOCCOCCOCCOCCc3cccc4c3n(C)c(=O)n4C3CCC(=O)NC3=O)cn2)cc1Nc1cccc(-c2ncc(F)cn2)c1OC (stereo not drawn)	0.01 to 0.1 µM	> 0.1 µM	0.001 to 0.01 µM
Cn1c(=O)n(C2CCC(=O)NC2=O)c2ccc(-c3ccc([C@H]4CC[C@H](N5CCN(Cc6ccc(-c7cccc(Nc8ccc9ncc(C(=O)NC%10CC%10)n9n8)c7)nc6)CC5)CC4)cc3)cc21 (stereo partly drawn)	> 0.1 µM	> 0.1 µM	> 0.1 µM
CNC(=O)c1cnc(Nc2ccc(C(=O)NCCOCCOCCc3cccc4c3n(C)c(=O)n4C3CCC(=O)NC3=O)cn2)cc1Nc1cccc(-c2ncc(F)cn2)c1OC (stereo not drawn)	0.01 to 0.1 µM	> 0.1 µM	0.001 to 0.01 µM
CNc1cc(Nc2cccn(-c3ccc(C(=O)N4CCC5(CCN(c6ccc(-c7ccc8c(c7)n(C)c(=O)n8C7CCC(=O)NC7=O)cc6)C5)C4)cn3)c2=O)nn2c(C(=O)N[C@@H]3C[C@@H]3F)cnc12 (stereo partly drawn)	> 0.1 µM	< 0.001 µM	> 0.1 µM
CNc1cc(Nc2cccn(-c3ccc(C(=O)N[C@H]4CC[C@H](CN5CC[C@@H](N6CCN(Cc7ccc8c(c7)n(C)c(=O)n8C7CCC(=O)NC7=O)CC6)C5)CC4)cn3)c2=O)nn2c(C(=O)N[C@@H]3C[C@@H]3F)cnc12 (stereo partly drawn)	> 0.1 µM	< 0.001 µM	> 0.1 µM
CNc1cc(Nc2cccn(-c3ccc(C(=O)N4CCOC5(CN(CC#Cc6ccc7c(c6)n(C)c(=O)n7C6CCC(=O)NC6=O)C5)C4)cn3)c2=O)nn2c(C(=O)N[C@@H]3C[C@@H]3F)cnc12 (stereo partly drawn)	> 0.1 µM	> 0.1 µM	> 0.1 µM
Cn1c(=O)n(C2CCC(=O)NC2=O)c2ccc(CCOCCOCCOCCOCCOCCOCCNc3cc(Nc4cccn(-c5ccccn5)c4=O)nn4c(C(=O)N[C@@H]5C[C@@H]5F)cnc34)cc21 (stereo partly drawn)	> 0.1 µM	> 0.1 µM	> 0.1 µM
CNC(=O)c1cnc(Nc2ccc(C(=O)NCCOCCOCCOCCOCCc3cccc4c3n(C)c(=O)n4C3CCC(=O)NC3=O)cn2)cc1Nc1cccc(-c2ncc(F)cn2)c1OC (stereo not drawn)	0.001 to 0.01 µM	> 0.1 µM	0.001 to 0.01 µM

More lines, now with the values ahead:

DC50 (TYK2 [1])	DC50 (TYK2 [2])	DC50 (TYK2 [3])	SMILES
> 0.1 µM	0.001 to 0.01 µM	> 0.1 µM	CNc1cc(Nc2c(F)ccc(-c3ccc(CN4CCN(c5ccc(-c6ccc7c(c6)n(C)c(=O)n7C6CCC(=O)NC6=O)cc5)CC4)cn3)c2OC)nn2c(C(=O)N[C@@H]3C[C@@H]3F)cnc12 (stereo partly drawn)
> 0.1 µM	0.001 to 0.01 µM	> 0.1 µM	CNc1cc(N2CCc3c(-c4ccc(C(=O)N5CCN(CC6CCN(c7ccc(-c8ccc9c(c8)n(C)c(=O)n9C8CCC(=O)NC8=O)cc7)CC6)CC5)cn4)cccc32)nn2c(C(=O)N[C@@H]3C[C@@H]3F)cnc12 (stereo partly drawn)
> 0.1 µM	0.001 to 0.01 µM	> 0.1 µM	CNc1cc(Nc2cccc(-c3ccc(CN4CCN(c5ccc(-c6ccc7c(c6)n(C)c(=O)n7C6CCC(=O)NC6=O)cc5)CC4)cn3)c2)nn2c(C(=O)NC3CCOC3)cnc12 (stereo not drawn)
> 0.1 µM	< 0.001 µM	> 0.1 µM	CNc1cc(N2CCc3c(-c4ccc(CN5CCN(c6ccc7c(c6)n(C)c(=O)n7C6CCC(=O)NC6=O)CC5)cn4)cccc32)nn2c(C(=O)N[C@@H]3C[C@@H]3F)cnc12 (stereo partly drawn)
> 0.1 µM	> 0.1 µM	> 0.1 µM	CNc1cc(N2CCc3c(N4CCN(CC5CCN(c6ccc(-c7ccc8c(c7)n(C)c(=O)n8C7CCC(=O)NC7=O)cc6)CC5)CC4)cccc32)nn2c(C(=O)N[C@@H]3C[C@@H]3F)cnc12 (stereo partly drawn)
> 0.1 µM	< 0.001 µM	> 0.1 µM	CNc1cc(N2CCc3c(-c4ccc(CN5CCC(N6CCN(c7ccc8c(c7)n(C)c(=O)n8C7CCC(=O)NC7=O)CC6)C(F)(F)C5)cn4)cccc32)nn2c(C(=O)N[C@@H]3C[C@@H]3F)cnc12 (stereo partly drawn)
